The values that follow come from PMC5177629, “Selective Estrogen Receptor Modulators: Cannabinoid Receptor Inverse Agonists with Differential CB1 and CB2 Selectivity” (Frontiers in Pharmacology, 2016).

The chains behind the UniProt entries cited, without tags or fusion partners.
UniProt P35372, whole entry: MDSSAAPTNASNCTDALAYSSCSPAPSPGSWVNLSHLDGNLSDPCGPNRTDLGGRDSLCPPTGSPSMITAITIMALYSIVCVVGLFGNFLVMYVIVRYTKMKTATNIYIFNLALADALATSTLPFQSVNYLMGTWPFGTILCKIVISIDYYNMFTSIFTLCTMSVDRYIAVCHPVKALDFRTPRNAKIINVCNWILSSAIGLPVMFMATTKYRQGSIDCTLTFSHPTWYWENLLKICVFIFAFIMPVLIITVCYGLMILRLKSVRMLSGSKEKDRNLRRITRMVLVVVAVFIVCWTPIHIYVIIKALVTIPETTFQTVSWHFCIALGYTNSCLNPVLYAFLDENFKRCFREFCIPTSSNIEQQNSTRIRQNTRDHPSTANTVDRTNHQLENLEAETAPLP

The target of the test is T1, human mu opioid receptors (hMOR) (Homo sapiens, UniProt P35372).
T1 construct: expressed in transfected cells; host or cells: CHO cells (CHO-hMOR), membranes or intact cells
As to the kind of experiment: [35S]GTPγS binding, CHO-hMOR membranes (control devoid of CBRs). Type of test: biochemical. As to conditions: 10 μM. The procedure:
Non-specific binding was defined by radioactivity remaining in the presence of 10 μM of non-radioactive GTPγS. All reactions were incubated for 30 min at 30°C, terminated by filtration through Whatman GF/B glass fiber filters (Brandel, Inc.) and followed by four 4 ml washes of ice cold filtration buffer (50 mM HEPES, pH 7.4) containing 0.1% bovine serum albumin. Filter punches of individual samples were placed in scintillation vials containing 4 mls of ScintiverseTM BD cocktail scintillation fluid (Fisher Scientific, Pittsburg, PA, USA). Final counts were determined using liquid scintillation spectrophotometry (Tri Carb 2100 TR Liquid Scintillation Analyzer, Packard Instrument Company, Meriden, CT, USA) after overnight incubation.
Background: Binding of GTPγS marks nucleotide exchange on a G protein.

Regarding DAMGO, the “increase in G-protein activity, CHO-hMOR” value was found to be 53%.
